Here are results for one compound from ChEMBL document CHEMBL5370661, “Development of Fluorescent AF64394 Analogues Enables Real-Time Binding Studies for the Orphan Class A GPCR GPR3” (J Med Chem, 2023).

The chains behind the UniProt entries cited, without tags or fusion partners. Where a name states a change or a piece, a line headed by the entry shows the natural chain unless it says otherwise.
UniProt P46089: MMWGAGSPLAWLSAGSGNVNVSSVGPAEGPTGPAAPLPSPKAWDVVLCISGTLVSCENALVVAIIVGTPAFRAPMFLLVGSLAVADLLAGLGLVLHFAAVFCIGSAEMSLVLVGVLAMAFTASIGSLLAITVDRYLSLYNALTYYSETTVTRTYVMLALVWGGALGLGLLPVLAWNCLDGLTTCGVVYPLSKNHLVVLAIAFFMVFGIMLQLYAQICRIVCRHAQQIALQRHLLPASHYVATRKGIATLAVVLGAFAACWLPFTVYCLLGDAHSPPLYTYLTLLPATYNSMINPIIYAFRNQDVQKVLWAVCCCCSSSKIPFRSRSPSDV

This assay addresses G-protein coupled receptor 3 (Homo sapiens, UniProt P46089).

As to `c1ccc2c(c1)[I+]c1ccccc1-2` [DIPHENYLENEIODONIUM CHLORIDE], a half-maximal effect (EC50) was put at 1000 nM.
